# From PubChem BioAssay AID1718 (Vanderbilt High Throughput Screening Facility, 2009)
# The entries are a selection whose mix differs from that of the whole data set. Results filed as inconclusive are left out. The source made the active and inactive calls.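 Rule for the calls: active = thallium flux slope above the same plate's solvent-control mean plus 3 SD in both duplicate wells; inconclusive = duplicate wells that disagreed; inactive = the rest.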
# Test: native HEK Tl+ uptake effects, second counter-screen – HEK cells, counterscreen 2, counter-screen for KCC2 modulator project, confirmation (AID 1718);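 note: run without ouabain in cells lacking the KCC2 cotransporter; slope of fluorescence scaled to its starting value between 10 and 20 s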
# Settings: HEK293 parental, thallium flux FluoZin-2 fluorescence slope; at 10 µM
# Procedure, shortened: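 Read-out: thallium influx rate; assay system: parental HEK cells; replication: slope calculated separately for each replicate well; signal: FluoZin2-AM fluorescence (0.5 µM), ex 480 nm, em 540 nm, kinetic 1 Hz; benchmarks: bumetanide 2 mM; schedule: overnight cell culture at 37 °C, 48 min dye loading, compound before thallium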
row,Structure (SMILES),thallium flux slope
1,O=c1c2cc([N+](=O)[O-])ccc2[nH]c2c([N+](=O)[O-])cc([N+](=O)[O-])cc12,inactive: 0.0105
2,C[N+]1=C2C=CC=CC=C2SC12C([N+](=O)[O-])=CC([N+](=O)[O-])=C[C-]2[N+](=O)[O-] (stereo not drawn),active: 0.0222
3,O=P(Nc1nc2ccc(Cl)cc2s1)(c1ccccc1)c1ccccc1,active: 0.0183
